A selection: hits, their analogues and other compounds. The true share with any hit is near 0.43%.
HCMV UL50-53 inh: inhibitors of HCMV UL50-UL53 nuclear egress complex interaction | hit rate 0.15% among 190,000 | HTRF UL50-UL53 interaction, normalized percent inhibition | inhibition, % (test concentration not listed); in the data active = inhibition above about 27%, passing the limit was not always enough
GIV Gai3 FP: blocks GIV peptide binding to rat Galpha-i3; P08753; Galpha-i3/FITC-GIV peptide fluorescence polarization, 90 min; stronger effect = lower value; scaled: aluminum fluoride 0%, vehicle 100%; percent of control (FP), % (no concentration beside the values); 210,000 tested, 0.42% active; AID 1224905;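 active = replicate mean at 85% of control or lower, very high polarization wells dropped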;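 also: wells of about 15 µL received 100 nL stock; the first replicate is given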
Numbers stand for hits; 0 = inactive; - = no result given.

SMILES | HCMV UL50-53 inh | GIV Gai3 FP
CC(C)CNc1cc(N2CCCC2)c2noc3c2c1C(=O)c1ccccc1-3 | 0 | 0
O=C1c2ccccc2-c2onc3c(Br)cc(NCc4ccccc4)c1c23 | - | -21.2
Cc1cccc(Nc2cc(NCc3ccccc3)c3noc4c3c2C(=O)c2ccccc2-4)c1 | - | 0
CCN1CCN(c2cc(NCC(=O)O)c3c4c(onc24)-c2ccccc2C3=O)CC1 | 0 | 0
CCCCNc1cc(N2CCN(C3CCCCC3)CC2)c2noc3c2c1C(=O)c1ccccc1-3 | 0 | 0
CCOC(=O)C1CCN(c2cc(NCC(=O)O)c3c4c(onc24)-c2ccccc2C3=O)CC1 | 0 | -57.3
CCNc1cc(N2CCCCCC2)c2noc3c2c1C(=O)c1ccccc1-3 | 0 | -19.8
Clc1cccc(C2C3CC=CC3c3c4c(cc5ccccc35)C3C=CCC3CN42)c1Cl (stereo not given) | 0 | 0
Cc1[nH][nH]c(=O)c1C1=NCCC1 | 0 | -
CNC(=S)Nc1ccc(C)c(NC(=S)NC)c1 | 0 | -
CC1=C(c2ccc(C(C)C)cc2)S(=O)(=O)N(CC(=O)NCc2ccc(N(C)C)cc2)C1=O | 0 | 0
COC(=O)C(C(=O)OC)C1(C)CCC(OC)C1(C)C (stereo not given) | 0 | -
Cc1ccc2oc(=O)c3cnn(CC(=O)N(Cc4ccco4)C4CCCC(C)C4C)c3c2c1 (stereo not given) | 0 | 0
C(=C\c1ccccc1)/CSc1nc2ccccc2o1 | 0 | 0
CCOC(=O)N1CCN(c2cc(NCCCC(=O)O)c3c4c(onc24)-c2ccccc2C3=O)CC1 | 0 | -74.2
O=C(O)CCCNc1cc(N2CCCC2)c2noc3c2c1C(=O)c1ccccc1-3 | 0 | 0
CCNc1ccc2noc3c2c1C(=O)c1ccccc1-3 | 0 | -47.8
CCNc1cc(NCC)c2noc3c2c1C(=O)c1ccccc1-3 | 0 | 0
CC(Sc1nnc(-c2ccc(Cl)cc2)o1)C(=O)c1ccccc1 (stereo not given) | 0 | -
CCO/C=C1/C(=O)N(c2ccc(Cl)cn2)C(=O)c2ccccc21 | 0 | -
O=C1c2ccccc2C(=O)N1Cc1ccccc1 | 0 | 0
CCO/C=C1\C(=O)N(C)C(=O)c2ccccc21 | 76.7 | -
CCO/C=C1/C(=O)NC(=O)c2ccccc21 | 98.4 | -
CCO/C=C1/C(=O)N(Cc2ccc(OC)cc2)C(=O)c2ccccc21 | 57.4 | -
CCOc1ccc(/C=C2/C(=O)Nc3ccccc32)cc1 | 0 | -
SMILES | HCMV UL50-53 inh | GIV Gai3 FP
Cc1ccccc1NC(=O)c1cc2sccc2n1Cc1ccc(F)cc1 | 0 | 0
Clc1ccc(-c2noc(CSc3nccn3-c3ccccc3)n2)cc1 | - | 0
COC(CNC(=O)C1CCCN1C(=O)OCc1ccccc1)OC (stereo not given) | 0 | 0
Cc1cc(C)n(-c2nc3cc(Cl)ccc3nc2Nc2ccc(C)c(F)c2)n1 | 0 | 0
Cc1cc(C)n(-c2nc3cc(Cl)ccc3nc2Nc2ccc3c(c2)n(C)c(=O)n3C)n1 | 0 | 3.9
CC(C)c1nc(NCc2ccccc2)c(C#N)c2c1CCCC2 | 0 | 0
N#Cc1c(NCc2ccccc2)ncc2c1Nc1ccccc1C2 | 0 | 73.3
CC(C)c1ccc(C2Oc3ccccc3C3CC(c4ccc(Br)cc4)=NN32)cc1 (stereo not given) | 0 | 0
CC(C)(C)c1ccc(C2Oc3ccccc3C3CC(c4ccc(Br)cc4)=NN32)cc1 (stereo not given) | 42.5 | 0
C=CC1=C(C(=O)O)N2C(=O)[C@H](NC(=O)C(=NO)c3csc(N)n3)[C@H]2SC1 | 0 | -
C=CC1=C(C(=O)O)N2C(=O)C(NC(=O)C(=NOCC(=O)O)c3csc(N)n3)C2SC1 (stereo not given) | 94.9 | -
N#CC1=C(N)SC(N)=C(C#N)C1c1ccccc1F | 0 | -
CC(C)C1C(C#N)=C(N)SC(N)=C1C#N | 0 | 0
Cc1ccc(C2C(C#N)=C(N)SC(N)=C2C#N)c(C)c1 | 0 | 8.5
N#CC1=C(N)SC(N)=C(C#N)C1c1cccc2ccccc12 | 0 | -36.0
CN1C(=O)/C(=C/c2c(N3CCSCC3)nc3ccccn3c2=O)SC1=S | 0 | 0
C=CCNc1nc2ccccn2c(=O)c1/C=C1\SC(=S)N(C)C1=O | 0 | -24.4
C=CCNc1nc2ccccn2c(=O)c1/C=C1\SC(=S)N(CCOC)C1=O | 0 | -75.4
CCCN1C(=O)/C(=C/c2c(NCC)nc3ccccn3c2=O)SC1=S | 0 | -75.4
O=C1/C(=C/c2c(NCC3CCCO3)nc3ccccn3c2=O)SC(=S)N1C1CCCCC1 (stereo not given) | - | 0
C=CCNc1nc2ccccn2c(=O)c1/C=C1\SC(=S)N(Cc2ccc3c(c2)OCO3)C1=O | - | -26.8
O=C1/C(=C/c2c(NCCCn3ccnc3)nc3ccccn3c2=O)SC(=S)N1CC1CCCO1 (stereo not given) | - | 0
O=C1/C(=C/c2c(NCc3ccccc3)nc3ccccn3c2=O)SC(=S)N1CC1CCCO1 (stereo not given) | - | 0
COc1cccc(/C=N/n2c(N)nc3ccccc32)c1OC | 0 | 0
Cc1cc(C)n2cc(CSc3ccccn3)nc2n1 | 0 | -
SMILES | HCMV UL50-53 inh | GIV Gai3 FP
O=C1/C(=C/c2cccs2)SC(=S)N1C1CCCCC1 | - | 0
COc1cc(OC)c(NC(=O)Cn2nc(C)n3cccc3c2=O)cc1Cl | 0 | 0
CCCN1CC(CSC)C[C@@H]2c3cccc4[nH]cc(c34)C[C@H]21 (stereo not given in full) | 50.4 | -
O=C(c1ccc2nc(/C=C(\O)c3ccc(Cl)cc3)c(=O)[nH]c2c1)N1CCN(c2ccco2)CC1 | 0 | 0
O=C(c1ccc2nc(/C=C(\O)c3ccc(Cl)cc3)c(=O)[nH]c2c1)N1CCOCC1 | 0 | 67.9
CSC1=NCCN1C(=O)C12CC3CC(CC(C3)C1)C2 | 0 | 0
N#CC1=C(N)SC(N)=C(C#N)C1c1cc2c(cc1Cl)OCO2 | 0 | -0.4
CCc1ccc(C2C(C#N)=C(N)Oc3cc4c(cc32)OCO4)cc1 (stereo not given) | - | 0
C=CC(=O)Nc1ccc(-c2nc3ccc(NC(=O)C=C)cc3[nH]2)cc1 | 53.8 | 0
CC(C)(C)C(=O)Nc1ccc(-c2nc3ccc(NC(=O)C(C)(C)C)cc3[nH]2)cc1 | 0 | 0
CS(=O)(=O)Nc1cccc(C(=O)OCC(=O)c2cccs2)c1 | 0 | -
Cc1ccc(NC(=O)CSc2nc3c(oc4ccccc43)c(=O)n2Cc2ccc(F)cc2)c(C)c1 | - | 0
COc1ccc(C)cc1NC(=O)CSc1nc2c(sc3ncccc32)c(=O)n1Cc1ccc(F)cc1 | 54.6 | 0
COc1cccc(NC(=O)CSc2nc3c(sc4ncccc43)c(=O)n2Cc2ccc(C)cc2)c1 | 78.8 | 0
CCN(CC)CCn1c(SCC(=O)Nc2cccc(OC)c2)nc2c(sc3ccccc32)c1=O | - | 0
CC1CCN(S(=O)(=O)N2CCCC(C(=O)NCCCN3CCN(Cc4ccccc4)CC3)C2)CC1 (stereo not given) | 0 | 0
CC(C)N(CCCNC(=O)Cn1ncc2c([nH]c3ccccc32)c1=O)Cc1ccccc1 | - | 0
CNc1cccc2cccc(OC)c12 | 0 | -
COc1ccc2cccc3c2c1C=CC3=O | 0 | -88.7
CCN(CC)c1ccc(/C=C/c2cc(=O)cc(C)o2)cc1 | 0 | -61.2
CCN(CC)c1ccc(/C=C2/SC(=O)NC2=O)cc1 | 0 | 0
COc1ccc(OCC(O)CNS(=O)(=O)c2cccs2)cc1 (stereo not given) | 0 | 0
COc1cc2c(cc1OC)NC(=O)C2 | 63.6 | 0
COc1cc2c(cc1OC)C(c1ccccc1)CC(=O)N2 (stereo not given) | 0 | 0
S=C1NCN(Cc2ccc3c(c2)OCO3)CN1 | 0 | 0
O=c1c2ccccc2n2c(-c3ccccc3O)nnc2n1Cc1ccc(F)cc1 | 0 | 0
